According to patent US9371363B2, “Peptides and their use” (Novabiotics Limited, priority 2007, dated 2016):

What was measured:
S. aureus = type: cell-based; details: CLSI broth dilution
Method: (§1) Broth Dilution Antibacterial Susceptibility Testing
(§2) The sensitivity of relevant bacterial strains to the peptides (was determined using Clinical Laboratory Standard Institute (CLSI; formerly NCCLS) Approved Standards. Bacterial susceptibility was tested using “Methods for Dilution Antimicrobial Susceptibility Tests for Bacteria That Grow […]; Approved Standard—Seventh Edition M7-A7”

Ps. aeruginosa = type: cell-based; details: CLSI broth dilution
Method: as §1, §2

Structure (SMILES)	Minimum Inhibitory Concentration, antimicrobial activity, S. aureus (S. aureus) [mM]	Minimum Inhibitory Concentration, antimicrobial activity, Ps. aeruginosa (Ps. aeruginosa) [mM]
N=C(N)NCCC[C@H](NC(=O)[C@H](CCCNC(=N)N)NC(=O)[C@H](CCCNC(=N)N)NC(=O)[C@H](CCCNC(=N)N)NC(=O)[C@H](CCCNC(=N)N)NC(=O)[C@H](CCCNC(=N)N)NC(=O)[C@H](CCCNC(=N)N)NC(=O)[C@H](CCCNC(=N)N)NC(=O)[C@@H](N)CCCNC(=N)N)C(=O)O [NP316, RRRRRRRRR (SEQ ID NO: 12)]	>2	–
N=C(N)NCCC[C@H](NC(=O)[C@H](CCCNC(=N)N)NC(=O)[C@H](CCCNC(=N)N)NC(=O)[C@H](CCCNC(=N)N)NC(=O)[C@H](CCCNC(=N)N)NC(=O)[C@H](CCCNC(=N)N)NC(=O)[C@H](CCCNC(=N)N)NC(=O)[C@H](CCCNC(=N)N)NC(=O)[C@@H](N)CCCNC(=N)N)C(=O)O [NP349, RRRRRRRRR (SEQ ID NO: 12)]	–	0.5
